Reference: patent US20160002174A1, “CXCR4 Antagonists for the Treatment of Medical Disorders” (Emory University, priority 2005, published 2016)

Chains of the proteins cited; added tags and fusions are not shown.
UniProt P61073, whole entry: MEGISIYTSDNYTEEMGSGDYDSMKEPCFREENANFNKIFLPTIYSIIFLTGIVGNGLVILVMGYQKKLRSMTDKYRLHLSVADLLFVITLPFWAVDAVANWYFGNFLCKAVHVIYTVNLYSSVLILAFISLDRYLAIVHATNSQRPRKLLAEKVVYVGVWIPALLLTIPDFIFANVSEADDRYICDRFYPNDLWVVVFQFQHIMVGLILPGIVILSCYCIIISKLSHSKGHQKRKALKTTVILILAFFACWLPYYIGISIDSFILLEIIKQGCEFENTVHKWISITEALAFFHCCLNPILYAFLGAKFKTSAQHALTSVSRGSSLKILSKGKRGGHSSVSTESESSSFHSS

Target: CXCR4 (Homo sapiens, UniProt P61073)
Assay: Competition assays: test compounds binding to CXCR4 compared to SDF-1 (Table 2)
Settings: competition with SDF-1 for binding to CXCR4

IC50: 1 nM
Compound: Fc1cc(F)nc(NCc2ccc(CNc3nc(F)cc(F)n3)cc2)n1 [MSX-194]
